By UniProt entry, the sequences of proteins in these tests, tags left out.
UniProt Q04206, whole entry: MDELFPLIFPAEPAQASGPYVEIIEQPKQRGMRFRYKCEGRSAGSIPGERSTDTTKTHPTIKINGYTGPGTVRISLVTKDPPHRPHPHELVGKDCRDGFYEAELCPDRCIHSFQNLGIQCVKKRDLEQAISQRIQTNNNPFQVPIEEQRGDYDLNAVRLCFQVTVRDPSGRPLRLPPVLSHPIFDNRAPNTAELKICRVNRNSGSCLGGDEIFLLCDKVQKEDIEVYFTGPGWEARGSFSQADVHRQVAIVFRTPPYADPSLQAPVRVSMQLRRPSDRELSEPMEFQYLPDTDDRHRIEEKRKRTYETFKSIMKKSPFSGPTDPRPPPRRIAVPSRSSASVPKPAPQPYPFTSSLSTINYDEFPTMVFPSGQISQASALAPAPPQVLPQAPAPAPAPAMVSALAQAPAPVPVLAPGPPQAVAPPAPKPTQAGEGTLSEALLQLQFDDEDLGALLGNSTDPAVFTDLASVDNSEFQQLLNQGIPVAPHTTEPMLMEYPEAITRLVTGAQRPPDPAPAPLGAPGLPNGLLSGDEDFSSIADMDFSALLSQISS

According to patent US20030148396A1 (CITY OF NAGOYA, published 2003):

Target: T1, 35S-methionine-labeled p65 (UniProt Q04206, 35S-methionine label)
T1 construct: the two-hybrid bait is human p65; also called in vitro synthesized p65 protein; RelA
Assay: GST pull-down on glutathione-sepharose beads, autoradiography of 35S-labeled p65
Protocol: For in vitro protein-protein interaction studies, an equal amount of the in vitro-translated ³⁵S-methionine-labeled p65 was incubated with 5 mg of purified GST-RAI fusion proteins or GST alone (as a negative control) that were bound to glutathione-sepharose beads at 25° C. for 1 h in buffer A (250 ml).
The beads were washed by resuspension and centrifugation five times with 1 ml of ice-cold binding buffer A containing 0.1% NP-40. Bound proteins were eluted with an equal volume of SDS loading buffer, boiled for 3 min, dissolved into 5-20% SDS-PAGE, and visualized by autoradiography.

binding result: no binding
B1: GST alone (negative control) (other, UniProt P08515 1-218, looked up)
chain: MSPILGYWKIKGLVQPTRLLLEYLEEKYEEHLYERDEGDKWRNKKFELGLEFPNLPYYIDGDVKLTQSMAIIRYIADKHNMLGGCPKERAEISMLEGAVLDIRYGVSRIAYSKDFETLKVDFLSKLPEMLKMFEDRLCHKTYLNGDHVTHPDFMLYDALDVVLYMDPMCLDAFPKLVCFKKRIEAIPQIDKYLKSSKYIAWPLQGWQATFGGGDHPPK
notes: also called control GST protein
